The list shows a part of the results, in another mix than the full data. Some tests of the compounds listed are not included; inactive here does not mean inactive elsewhere. Results filed as inconclusive are left out. Active and inactive are the calls of the source. The call rests on the fitted dose curve; in most records, active means well fitted inhibition curve with a large enough effect; inconclusive means small, poorly fitted or top-dose-only effect; inactive means flat fitted curve, though single readings scatter.

This assay can be described thus: Acumen qHTS Assay for Inhibitors of the mTORC1 Signaling Pathway in MEF (Tsc2-/-, p53-/-) Cells: Sytravon. Further: nearly all actives have a fitted effect of over 50% in size. The conditions noted are these: phospho-rpS6 immunofluorescence/PI, 24 h; at 38.3 µM (top of the series). An excerpt: NIH Molecular Libraries Probe Production Centers Network [MLPCN] NIH Chemical Genomics Center [NCGC] MLPCN Grant: NS059428-01 Assay Submitter (PI): Blenis, John; Hoffman, Greg; Harvard University NCGC Assay Overview: The mammalian target of rapamycin (mTOR) is an intracellular serine/threonine kinase Aberrant regulation of mTOR signaling plays a causative role in a number of human diseases, including cancer, benign tumors such as lymphangioleiomyomatosis (LAM) and Tuberous Sclerosis Complex (TSC), and metabolic diseases such as diabetes and obesity. This project aims to identify inhibitors of ribosomal protein S6 (rpS6) phosphorylation. The phosphorylation of rpS6 is a key event downstream of mTOR activation. The assay uses a phospho-specific antibody of phospho-rpS6 to detect inhibitors of mTOR activation. Mutations in the Tsc1 and Tsc2 genes are the underlying genetic lesions responsible for TSC, causing constitutive activation of the mTORC1 pathway and leading to profound effects on cell metabolism. Aberrant metabolism in cancer has recently received significant attention as a target to develop therapeutic agents in the treatment of cancer.1 As Tsc2-/- cells have lost the ability to respond to energy and growth factor deprivation, these cells are unable to properly down regulate cellular biosynthetic processes in response to metabolic stress, and are thus extremely sensitive to glucose deprivation-induced death.2 A central goal of this project is to explore the unique cell survival and metabolic properties of cells with Tsc1 or Tsc2 by screening for compounds that selectively target the Tsc2-/- MEFs by screening both Tsc2-/- and WT MEF cell lines. We hope to better understand these aspects of TSC physiology in order to exploit them for therapeutic benefit.
NCGC Acumen Assay Protocol Summary: For quantitative high throughput analysis of mTORC1 signaling, we developed a cell-based assay for immuno-fluorescence based detection of rpS6 phosphorylation on the Acumen Explorer that will be used a platform for the primary small molecule screen. Mouse embryonic fibroblasts (MEFs) are cultured in 1536-well plates using DMEM + 10% FBS. Twenty-four hrs after plating, test compounds (solubilized in DMSO) are delivered and incubated with the cells for 24 hrs at 37 degree Celsius. Following the incubation, media with compound is aspirated and the cells are fixed in 4% paraformaldehyde (PFA) containing PBS + 0.2% TX-100. Next, PFA is aspirated, cells are washed two times with PBS plus 0.2% TX-100 and the cells are blocked for 1 hr at room temperature (blocking buffer: LiCOR Blocking Buffer plus 0.2% TX-100). […] Cells are washed two times with PBS plus 0.2% TX-100, and stained with 10 uM propidium iodide (PI) for 20-25 minutes for cell number measurement (1:500 dilution of Hoescht staining is also added for IN Cell imaging). The plates are scanned on the Acumen Explorer laser scanning instrument (TTP Labtech) using the 488nm laser for simultaneous excitation of the Alexa-488 and PI. […] The normalized phospho-S6 staining is calculated as the ratio of the integrated Alexa 488 intensity divided by the integrated PI intensity for the single concentration rapamycin control (7.5 nM) and DMSO columns. […] Inhibition of the pathway is defined based on the normalized phospho-S6 intensity in rapamycin treated cells. Active cells are defined as those with a normalized phospho-S6 staining above this threshold, and each treatment is reported as the % positive cells in the well, where thresholds are defined by selecting wells with the highest and lowest signal and differentiating between the % non-active and % active populations. In addition to the pathway specific phospho-S6 endpoint, the number of PI stained cells from the Acumen is recorded as a measure of cell viability. The primary screen was performed with a MEF cell line in a defined genetic background, Tsc2-/-, p53-/- cell line stably transfected with an empty vector control (Tsc2-/- MEF).
In general terms: qHTS replaces the single test concentration by a dilution series.
On to `COc1ccc(C(=O)NCC2(N(C)C)CCCCC2)cc1Cl`, for which the activity change, negative = inhibition is inactive: 1.75%. In the case of `CC(C)Oc1ccc(C(=O)NCC2(N(C)C)CCCCC2)cc1`, the activity change, negative = inhibition was inactive: 2.23%. Next, `Cc1cccc(C(=O)NCC2(N(C)C)CCCCC2)c1`: inactive: -8.41%; `COc1cc(C(=O)NCC2(N(C)C)CCCCC2)cc(OC)c1OC`: inactive: 1.07%.

On to `COc1cccc(C(=O)NCC2(N3CCOCC3)CCCCC2)c1`, for which the activity change, negative = inhibition was inactive: -1.03%.

Consider `CN(C)C1(CNC(=O)c2ccccc2F)CCCCC1`, for which the activity change, negative = inhibition was inactive: 1.6%.

Take `CN(C)C1(CNC(=O)c2cccc(Cl)c2)CCCCC1`: the activity change, negative = inhibition is inactive: -0.506%. `CCOc1cccc(C(=O)NCC2(N(C)C)CCCCC2)c1`: the activity change, negative = inhibition is inactive: -2.65%. Regarding `CCCCOc1ccccc1C(=O)NCC1(N(C)C)CCCCC1`, the activity change, negative = inhibition is inactive: -0.725%. `CN(C)C1(CNC(=O)c2ccccc2[N+](=O)[O-])CCCCC1`: the activity change, negative = inhibition was inactive: -8.41%.

The record behind these values is PubChem BioAssay AID493208 (National Center for Advancing Translational Sciences (NCATS), 2011).
